Experimental data taken from ChEMBL document CHEMBL1136016, “Synthesis, biological activity, and molecular modeling investigation of new pyrazolo[4,3-e]-1,2,4-triazolo[1,5-c]pyrimidine derivatives as human A(3) adenosine receptor antagonists” (J Med Chem, 2002).

Amino acid sequences for entries named in this document (tags omitted). A change or cut given only in a name is not applied to a line headed by its entry.
UniProt P30542, whole entry, looked up: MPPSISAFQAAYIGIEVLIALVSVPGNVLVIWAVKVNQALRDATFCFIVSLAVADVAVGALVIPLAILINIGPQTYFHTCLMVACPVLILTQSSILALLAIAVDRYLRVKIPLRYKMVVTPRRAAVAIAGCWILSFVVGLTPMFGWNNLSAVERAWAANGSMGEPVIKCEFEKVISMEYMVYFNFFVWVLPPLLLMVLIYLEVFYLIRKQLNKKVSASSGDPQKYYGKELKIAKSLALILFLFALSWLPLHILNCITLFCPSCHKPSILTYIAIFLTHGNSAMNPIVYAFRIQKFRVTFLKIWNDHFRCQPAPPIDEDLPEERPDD
UniProt P0DMS8, whole entry, looked up: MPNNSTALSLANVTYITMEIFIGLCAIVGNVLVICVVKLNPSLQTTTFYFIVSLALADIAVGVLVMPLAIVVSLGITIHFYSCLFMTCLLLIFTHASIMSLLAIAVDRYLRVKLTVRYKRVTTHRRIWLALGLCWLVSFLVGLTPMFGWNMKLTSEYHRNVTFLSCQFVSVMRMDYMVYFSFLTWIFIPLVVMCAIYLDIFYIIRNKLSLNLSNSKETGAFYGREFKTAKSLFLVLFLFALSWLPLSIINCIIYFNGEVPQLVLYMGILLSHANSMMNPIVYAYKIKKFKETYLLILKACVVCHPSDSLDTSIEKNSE
UniProt P29275: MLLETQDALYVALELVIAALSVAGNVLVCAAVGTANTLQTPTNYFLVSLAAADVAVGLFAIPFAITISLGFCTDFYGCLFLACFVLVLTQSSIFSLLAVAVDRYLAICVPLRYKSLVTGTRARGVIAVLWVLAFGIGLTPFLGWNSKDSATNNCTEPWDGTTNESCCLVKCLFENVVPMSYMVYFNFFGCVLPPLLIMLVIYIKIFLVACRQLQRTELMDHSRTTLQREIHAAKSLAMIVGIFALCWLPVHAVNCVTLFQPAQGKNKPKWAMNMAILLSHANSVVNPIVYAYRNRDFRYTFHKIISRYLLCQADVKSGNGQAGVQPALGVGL

Legend:
[1] = molecular target: Adenosine receptors; A1 & A3 (Homo sapiens) (UniProt P30542+P0DMS8); experiment: Selectivity ratio (hA1/hA3); format: protein assay
[2] = molecular target: Adenosine receptors; A2b & A3 (Homo sapiens) (UniProt P29275+P0DMS8); experiment: Selectivity ratio (h2B/hA3); format: protein assay

Ratio [1]: 1500
Ratio [2]: 2570
Compound: CCCn1cc2c(nc(NC(=O)Nc3ccc(OC)cc3)n3nc(-c4ccco4)nc23)n1
